This is an account of results in paper PMC5862892, “Near-native, site-specific and purification-free protein labeling for quantitative protein interaction analysis by MicroScale Thermophoresis” (Scientific Reports, 2018).

In the test the target is T1, pUL50 (human cytomegalovirus, UniProt P16791 1-358).
T1 sequence: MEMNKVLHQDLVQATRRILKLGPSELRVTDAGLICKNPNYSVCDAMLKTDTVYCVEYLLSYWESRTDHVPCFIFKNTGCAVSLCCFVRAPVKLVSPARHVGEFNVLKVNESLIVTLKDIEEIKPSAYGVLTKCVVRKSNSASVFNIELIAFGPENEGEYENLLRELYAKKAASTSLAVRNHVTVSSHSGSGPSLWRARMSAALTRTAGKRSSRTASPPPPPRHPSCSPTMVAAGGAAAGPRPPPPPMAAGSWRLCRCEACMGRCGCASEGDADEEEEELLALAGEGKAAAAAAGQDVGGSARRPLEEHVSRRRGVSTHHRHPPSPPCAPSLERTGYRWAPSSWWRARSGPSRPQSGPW
The test can be described thus: MST.

What is called Kd is the constant that tells how readily two partners part at equilibrium. A lower Kd goes with tighter binding.

B1: His6-tagged protein variant of pUL53 (residues 50 to 292 of human cytomegalovirus ORF-UL53 1-376) (domain or fragment)
chain: PSPADARPRLTLHDLHDIFREHPELELKYLNMMKMAITGKESICLPFNFHSHRQHTCLDISPYGNEQVSRIACTSCEDNRILPTASDAMVAFINQTSNIMKNRNFYYGFCKSSELLKLSTNQPPIFQIYYLLHAANHDIVPFMHAEDGRLHMHVIFENPDVHIPCDCITQMLTAAREDYSVTLNIVRDHVVISVLCHAVSASSVKIDVTILQRKIDEMDIPNDVSESFERYKELIQELCQSSG
modifications: RED-tris-NTA (NT647-tris-NTA) bound to the His6 tag
notes: source: E. coli BL21(DE3)
In the case of B1, the Kd reads like this: (both partners purified) 1200 ± 500 nM; (one partner purified) 1800 ± 200 nM.
